The test system of one data set is 143B/EB virus-TK cells. Particulars: read-out: CC50 143B/EB Virus-TK; MTT assay, 5 days of culture. An excerpt: (§1) At first, a primer was designed on the basis of the data base information of NCBI, followed by extracting DNA from B95a cells (J. Virol. 1990; 64(2): 700-5), and the TK gene of an EB virus was amplified by PCR method and cloned in the multicloning site of an expression plasmid vector pCI-neo (pCI-EB-TKneo). Similarly, human-TK gene was also amplified by PCR method and cloned (pCI-huTKneo). Whether the cloned gene fragment was a desired gene or not was judged by determining the base sequence.
(§2) Then, TK-defect human osteosarcoma cells (143B) was transfected by lipofection method (Proc. Natl. Acad. Sci. USA 1987 November; 84(21): 7413-7) with the plasmid vector capable of expressing EB virus-TK gene or the plasmid vector capable of expressing human-TK gene, namely, pCI-EB-TKneo or pCI-huTKneo, and cells having each plasmid introduced therein were selected by the use of neomycin.
(§3) The drug sensitivity of 143B/EB virus-TK, 143B/hu-TK, 143B TK(−) cells and EB virus persistent infection cells was determined on the basis of the cytotoxicity of each drug. […] After 5 days of culture, the number of surviving cells was determined by MTT [3-(4,5-dimethylthiazol-2-yl)-2,5-diphenyltetrazolium bromide] assay. […]

For a further data set, the system named is 143B/hu-TK cells. Put plainly: MTT cytotoxicity assay, cell having human-TK gene introduced. In kind it is cell-based.
Description: as §1, §2, §3
A general note: Tetrazolium assays rely on reduction of a dye to a coloured formazan, in cell work by metabolically active cells.

Experimental findings from patent US20120225837A1, “MEDICINAL AGENT FOR DISEASE ASSOCIATED WITH EPSTEIN-BARR VIRUS, AND METHOD FOR SCREENING OF THE MEDICINAL AGENT” (Kyoto University, priority 2007, published 2012) are described below.

Regarding “β-D-2-methylene-4-thio-β-D-erythropentofuranosyl)thymine [4′-S-DMDT]”, the CC50 with 143B/EB virus-TK cells and with 143B/hu-TK cells was more than 100 µM each time.
